Experiments:
CYP1A2 [1] = target: T1, CYP1A2 (Homo sapiens, UniProt P05177); experiment: in vitro; settings: both, microsomes
CYP1A2 [2] = target: T1, CYP1A2; settings: both, 30 min, 5 μM

Sequences of proteins named here, by UniProt entry; tags and fusion partners are left off.
UniProt P05177, whole entry: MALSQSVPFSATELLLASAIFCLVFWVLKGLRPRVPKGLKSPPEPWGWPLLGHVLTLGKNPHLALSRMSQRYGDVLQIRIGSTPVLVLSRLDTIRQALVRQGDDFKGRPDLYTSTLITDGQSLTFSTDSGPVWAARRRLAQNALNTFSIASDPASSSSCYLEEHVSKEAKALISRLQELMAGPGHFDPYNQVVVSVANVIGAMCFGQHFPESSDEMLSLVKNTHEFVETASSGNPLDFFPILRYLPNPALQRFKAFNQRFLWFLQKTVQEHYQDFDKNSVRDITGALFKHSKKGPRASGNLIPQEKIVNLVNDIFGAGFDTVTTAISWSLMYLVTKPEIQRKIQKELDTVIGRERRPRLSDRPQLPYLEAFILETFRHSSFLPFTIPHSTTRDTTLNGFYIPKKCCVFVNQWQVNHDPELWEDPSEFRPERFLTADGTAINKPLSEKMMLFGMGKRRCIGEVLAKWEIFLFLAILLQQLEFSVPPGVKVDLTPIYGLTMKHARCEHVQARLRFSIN

inhibition at 30 min, 5 μM (CYP1A2 [1]): 54%
Phenacetin AC Production (CYP1A2 [2]): 54.5 ± 1.3 pmol/mg protein/min
Compound: Cc1nc2c([nH]1)c(=O)n(C)c(=O)n2Cc1ccco1 [FUR, furafylline, reference compound]

From patent publication US20040039053A1, “Use of(-) (3-halomethylphenoxy) (4-halophenyl) acetic acid derivatives for treatment of insulin resistance, type 2 diabetes, hyperlipidemia and hyperuricemia” (priority 2000, published 2004)
